Experimental data from article PMC4579573.

Target: BRCC36(E30A)-KIAA0157ΔC complex (C. floridanus) (UniProt E2AXC7)
Experiment: fluorescence polarisation; competition: displacement of the AlexaFluor-488 labeled K63-linked diUb tracer by unlabeled ubiquitin species

IC50	Substance
6.4 µM	unlabeled K63 linked diUb (from UniProt P0CG48 1-76)
74 µM	mono ubiquitin (from UniProt P0CG48 1-76) (natural protein)
